For one substance, Kd and PI3-kinase activity increase results are on record in patent US7175844B2, “Methods of modulating fibrosis” (Joslin Diabetes Center, Inc., priority 2000, dated 2007).

Amino acid sequences for entries named in this document (tags omitted). Residues count along the entry.
UniProt P35968, 20-1356: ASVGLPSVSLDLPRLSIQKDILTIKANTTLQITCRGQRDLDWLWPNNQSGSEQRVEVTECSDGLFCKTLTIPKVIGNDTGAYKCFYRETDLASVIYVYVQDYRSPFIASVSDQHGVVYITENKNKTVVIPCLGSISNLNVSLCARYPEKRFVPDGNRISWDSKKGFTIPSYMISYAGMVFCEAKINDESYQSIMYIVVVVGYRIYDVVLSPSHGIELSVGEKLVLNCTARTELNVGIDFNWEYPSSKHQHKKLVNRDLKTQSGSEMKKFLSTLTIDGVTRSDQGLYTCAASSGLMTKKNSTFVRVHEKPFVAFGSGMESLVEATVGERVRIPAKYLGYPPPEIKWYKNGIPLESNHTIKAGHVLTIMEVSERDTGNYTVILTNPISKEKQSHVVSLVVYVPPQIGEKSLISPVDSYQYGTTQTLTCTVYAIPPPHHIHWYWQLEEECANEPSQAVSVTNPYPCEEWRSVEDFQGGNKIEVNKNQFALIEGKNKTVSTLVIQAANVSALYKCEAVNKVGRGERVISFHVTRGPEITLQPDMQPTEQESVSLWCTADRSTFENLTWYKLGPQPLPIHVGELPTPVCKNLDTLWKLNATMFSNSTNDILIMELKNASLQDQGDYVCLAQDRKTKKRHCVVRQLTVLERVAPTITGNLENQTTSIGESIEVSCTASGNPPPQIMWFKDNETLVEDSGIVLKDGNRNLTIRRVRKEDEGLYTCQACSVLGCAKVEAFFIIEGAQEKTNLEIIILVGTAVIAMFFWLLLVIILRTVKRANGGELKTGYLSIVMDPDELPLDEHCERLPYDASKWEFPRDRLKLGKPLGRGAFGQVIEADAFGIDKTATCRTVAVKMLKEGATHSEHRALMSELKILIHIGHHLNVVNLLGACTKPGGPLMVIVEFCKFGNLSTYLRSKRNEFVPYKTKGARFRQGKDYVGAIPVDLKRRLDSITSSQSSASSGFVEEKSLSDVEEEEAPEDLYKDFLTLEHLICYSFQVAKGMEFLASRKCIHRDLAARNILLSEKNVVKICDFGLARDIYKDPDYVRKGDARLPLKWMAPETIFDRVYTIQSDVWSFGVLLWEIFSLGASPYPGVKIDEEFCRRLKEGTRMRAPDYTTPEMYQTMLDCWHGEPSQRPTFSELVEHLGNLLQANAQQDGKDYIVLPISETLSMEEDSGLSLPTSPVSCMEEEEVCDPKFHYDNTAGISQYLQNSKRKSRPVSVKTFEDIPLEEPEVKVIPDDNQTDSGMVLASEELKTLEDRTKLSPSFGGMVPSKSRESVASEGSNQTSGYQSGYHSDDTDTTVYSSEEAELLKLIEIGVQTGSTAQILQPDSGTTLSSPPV

Broadly, the Kd is the equilibrium constant for the complex coming apart.

The target in one data set is KDR/Flk1 (Homo sapiens, UniProt P35968). To be noted: cited from earlier work.
The test system of the next data set is PI3-kinase. In words: PI3-kinase activity assay in BRPC. Conditions: 25 ng/ml.

As for VEGF, the Kd on KDR/Flk1 is 0.01 to 0.1 nM. The PI3-kinase activity increase in the data set with PI3-kinase (after 5 min) amounted to 2.1±0.27 fold; with PI3-kinase (after 10 min) it was 1.6±0.17 fold.
